Source: patent US10918713B2, “Epitopes from allergen proteins and methods and uses for immune response modulation” (LA JOLLA INSTITUTE FOR ALLERGY AND IMMUNOLOGY, priority 2012, dated 2021)

The chains behind the UniProt entries cited, without tags or fusion partners. Residues count along the entry.
UniProt P01920, 33-261 with the stated changes: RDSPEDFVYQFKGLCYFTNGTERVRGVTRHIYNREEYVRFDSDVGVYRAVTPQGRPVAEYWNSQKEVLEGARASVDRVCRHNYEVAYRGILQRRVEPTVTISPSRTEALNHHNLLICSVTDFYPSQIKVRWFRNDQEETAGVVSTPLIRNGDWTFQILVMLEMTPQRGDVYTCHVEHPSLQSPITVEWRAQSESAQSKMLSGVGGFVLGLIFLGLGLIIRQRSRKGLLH

Target: DQA1*0101/DQB1*0501 (Homo sapiens, UniProt P01909+P01920, A157S/A45G/A70V/C70R/D89V/E106S/E118A/E183D/E77G/F83G/G63E/H151Q/H199R/H252R/H253Q/I129T/I235V/I88M/INS77G/K197Q/L107V/L117V/L119Y/L178F/L71W/L74F/L85Q/L91A/L98M/M46L/N214S/P87R/Q116E/Q256R/Q57E/Q76K/R102G/R240Q/R75S/R78G/S102Y/S185I/S41F/S97I/T103A/T109R/T121G/T122I/T172A/T86R/V148I/V68A/V73E/Y34C/Y58G/Y62H)
Test: biochemical

IC50	Structure (SMILES)
8.01 µM	CC[C@H](C)[C@H](NC(=O)[C@H](Cc1ccc(O)cc1)NC(=O)[C@H](C)NC(=O)[C@H](CC(=O)O)NC(=O)[C@H](C)NC(=O)[C@@H](NC(=O)CNC(=O)[C@@H](N)CCC(N)=O)C(C)C)C(=O)N[C@H](C(=O)N[C@@H](CC(C)C)C(=O)N[C@H](C(=O)N[C@H](C(=O)N[C@@H](CC(C)C)C(=O)N1CCC[C@H]1C(=O)N[C@@H](CCCCN)C(=O)O)[C@@H](C)O)C(C)C)[C@@H](C)O [3324.0011]
24.1 µM	CC[C@H](C)[C@H](N)C(=O)N[C@@H](C)C(=O)N[C@@H](CO)C(=O)N[C@@H](CC(C)C)C(=O)N[C@@H](Cc1ccccc1)C(=O)N[C@@H](C)C(=O)N[C@@H](C)C(=O)N[C@@H](C)C(=O)NCC(=O)N[C@@H](CC(C)C)C(=O)N[C@@H](C)C(=O)N[C@@H](C)C(=O)N[C@@H](C)C(=O)N[C@@H](C)C(=O)N1CCC[C@H]1C(=O)O [3324.0015]
